Several values for one entry are separate records, joined by “and”; a condition that tells them apart may be missing. Equal entries are not always repeated.
Tests used:
Format in all cases: cell-based
[1] = tested on: Ba/F3 cells of EGFR-C797S/T790M/del19; assay: Drug sensitivity screening at 100 nM, Ba/F3 EGFR-C797S/T790M/del19; details: 72 h, DMSO = 100; for Cell inhibition rate relative to DMSO in C797S/T790M/del19 Ba/F3 cells: 100 nM; for Relative cell viability (ratio to DMSO control), del19/T790M/C797S: 100 nM inhibitor, mean of three independent experiments (Fig. 1a data)
[2] = tested on: Ba/F3 cells of EGFR-C797S/del19; assay: Drug sensitivity screening at 100 nM, Ba/F3 EGFR-C797S/del19; details: 72 h, DMSO = 100; for Cell inhibition rate relative to DMSO in C797S/del19 Ba/F3 cells: 100 nM; for viability at 0.1 µM: Mus musculus, BaF3, 72 h, read-out: Relative cell viability (ratio to DMSO control), del19/C797S; for viability at 0.1 µM / Relative cell viability (ratio to DMSO control), del19/C797S: 100 nM inhibitor, mean of three independent experiments (Fig. 1a data)
[3] = tested on: phosphorylation of EGFR in Ba/F3 cells expressing EGFR-C797S/T790M/L858R; assay: Western blotting of EGFR signalling, Ba/F3 triple-L858R; details: 6 h, up to 1000 nM
[4] = tested on: Ba/F3 cells expressing EGFR-C797S/L858R; assay: CellTiter-Glo cell viability assay, Ba/F3 EGFR-C797S/L858R; details: Mus musculus, BaF3; Supplementary Fig. 8e; 72 h; read-out: IC50, Ba/F3 C797S/L858R

SMILES	Cell inhibition rate relative to DMSO in C797S/T790M/del19 Ba/F3 cells ([1]; experiment 2)	Cell inhibition rate relative to DMSO in C797S/T790M/del19 Ba/F3 cells ([1]; experiment 3)	Cell inhibition rate relative to DMSO in C797S/del19 Ba/F3 cells ([2]; experiment 1)	Cell inhibition rate relative to DMSO in C797S/del19 Ba/F3 cells ([2]; experiment 2)	viability at 0.1 µM [2] [%]	Cell inhibition rate relative to DMSO in C797S/T790M/del19 Ba/F3 cells ([1]; experiment 1)	other results
Cc1[nH]c(/C=C2\C(=O)Nc3ccc(S(=O)(=O)Cc4c(Cl)cccc4Cl)cc32)c(C)c1C(=O)N1CCC[C@@H]1CN1CCCC1 [PHA665752]	141.184	137.987					
CC(=O)O[C@H]1C(=O)[C@@]2(C)[C@H]([C@H](OC(=O)c3ccccc3)[C@]3(O)C[C@H](OC(=O)[C@H](O)[C@@H](NC(=O)c4ccccc4)c4ccccc4)C(C)=C1C3(C)C)[C@]1(OC(C)=O)CO[C@@H]1C[C@@H]2O [paclitaxel]	104.896	100.035	52.9536	25.364	42.2		
COc1cc2nccc(Oc3ccc(NC(=O)C4(C(=O)Nc5ccc(F)cc5)CC4)cc3)c2cc1OC [XL184]	146.435	135.248					
CO[C@H]1C[C@@H]2CC[C@@H](C)[C@@](O)(O2)C(=O)C(=O)N2CCCC[C@H]2C(=O)O[C@H]([C@H](C)C[C@@H]2CC[C@@H](OCCO)[C@H](OC)C2)CC(=O)[C@H](C)/C=C(\C)[C@@H](O)[C@@H](OC)C(=O)[C@H](C)C[C@H](C)/C=C/C=C/C=C/1C [Everolimus, everolimus]			55.3169		53.5		
COc1cc(N2CCC(N3CCN(C)CC3)CC2)ccc1Nc1ncc(Cl)c(Nc2ccccc2S(=O)(=O)C(C)C)n1 [TAE684]					86.7		phosphorylation of EGFR and downstream signal pathway, Ba/F3 C797S/T790M/L858R [3]: didn’t suppress the signals
C=CCNC1=C2C[C@@H](C)C[C@H](OC)[C@H](O)[C@@H](C)/C=C(\C)[C@H](OC(N)=O)[C@@H](OC)/C=C\C=C(/C)C(=O)NC(=CC1=O)C2=O [17-AAG]	74.757	74.082	42.4791	43.3841		62.3983	Relative cell viability (ratio to DMSO control), del19/C797S [2]: 42.00 and 41.9985; Cell inhibition rate relative to DMSO in C797S/del19 Ba/F3 cells ([2]; experiment 3): 40.1323; Relative cell viability (ratio to DMSO control), del19/T790M/C797S [1]: 70.41 and 70.4124
COc1cc(N2CCC(N3CCN(C)CC3)CC2)ccc1Nc1ncnc(Nc2ccccc2S(=O)(=O)C(C)C)n1 [ASP3026]							IC50 [4]: 1040 nM; phosphorylation of EGFR and downstream signal pathway, Ba/F3 C797S/T790M/L858R [3]: didn’t suppress the signals
O=C(C(c1ccccc1)c1ccccc1)N1CCN(CC(O)COc2cccc3ncccc23)CC1 (stereo not drawn) [MS209]	130.343	119.71	108.744	109.544		110.451	Relative cell viability (ratio to DMSO control), del19/C797S [2]: 110.326; Cell inhibition rate relative to DMSO in C797S/del19 Ba/F3 cells ([2]; experiment 3): 112.691; Relative cell viability (ratio to DMSO control), del19/T790M/C797S [1]: 120.168
CC(=O)Nc1cccc(-n2c(=O)n(C3CC3)c(=O)c3c(Nc4ccc(I)cc4F)n(C)c(=O)c(C)c32)c1 [Trametinib, trametinib]	45.2979	43.3634				43.7937	
C[C@H]1Oc2cc(cnc2N)-c2c(nn(C)c2C#N)CN(C)C(=O)c2ccc(F)cc21 [Lorlatinib, lorlatinib]	134.161						
COc1cc(N2CCC(N)CC2)ccc1Nc1ncc(Cl)c(-c2c[nH]c3ccccc23)n1 [AZD3463]					22.1	96.0576	IC50 [4]: 374 nM
Cc1nc2ccc(-n3ncc(C(=O)c4cc5ccccc5[nH]4)c3N)cc2[nH]1 [CH5183284]	117.224	130.844	103.503	100.553		102.347	Relative cell viability (ratio to DMSO control), del19/C797S [2]: 103.89 and 103.887; Cell inhibition rate relative to DMSO in C797S/del19 Ba/F3 cells ([2]; experiment 3): 107.604; Relative cell viability (ratio to DMSO control), del19/T790M/C797S [1]: 116.81 and 116.805
CCc1cc2c(cc1N1CCC(N3CCOCC3)CC1)C(C)(C)c1[nH]c3cc(C#N)ccc3c1C2=O [Alectinib, alectinib]	159.496	143.275					
